Only some compounds are listed: those with a hit (about 1.3% of all), similar ones and a draw of the others.
miR122 inh: blocks miR-122 activity in Huh7 sensor cells | Huh7 miR-122 Renilla luciferase sensor, 48 h; neutral wells = 0, positive control = 100 | activation (reporter increase), % at 12.5 µM | 340,000 tested, 0.3% active | AID 602342;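 active means mean replicate activation score at least 90 and every replicate individually at or above 90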;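 further: higher luciferase means less miR-122 activity so hits act as miR-122 inhibitors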
LGR2 antag: Drosophila LGR2 receptor signaling inhibition; HEK293 LGR2, CRE-luciferase, bursicon-stimulated, 4 h; inhibition, % at 9.99 µM; 380,000 tested, 0.35% active;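 active means drop in luminescence signal, shown as inhibition above about 50% in the replicate tests, limit read from the data, passing the limit was not always enough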;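 further: agonist challenge used bursicon conditioned medium at about half maximal strength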
F508del corr: correctors of CFTR F508del function in bronchial epithelial cells | CFBE cells, YFP halide quenching; stimulated with forskolin plus potentiator P3; % fluorescence drop versus neutral controls | activity (quench increase), % at 7.58 µM | 350,000 tested, 0.36% active;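 active means mean added fluorescence quench of at least 8% versus neutral control, with both replicates also reaching 8%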;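 further: cells transiently co-express mutant CFTR-F508del with the halide-sensitive YFP; corrector assay measuring rescue of mutant channel to the surface after 24 h compound exposure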
Yeast UUG start-1: modulators of yeast start codon fidelity, primary screen, whole organism, S. cerevisiae, single point, plate reader | AID 602363, 2012 | S. cerevisiae UUG-firefly luciferase reporter, luminescence/redox ratio | activity score, % at 18.7 µM | hit rate 0.13% among 350,000;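 active = replicate mean at a twofold rise or more, about +100% in these data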;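 also: firefly luciferase made from a UUG start codon reports start codon fidelity; reporter light over untreated wells divided by growth signal over untreated wells; some hits fall short of that in this replicate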
PglD DTNB: inhibitors of Campylobacter jejuni PglD acetyltransferase; AID 602405; 360,000 tested, 0.098% active; purified PglD enzyme, DTNB colorimetric CoA detection; inhibition, % at 12.5 µM; in the data active means inhibition above about 16%, passing the limit was not always enough
EWS-Fli inh: blocks EWS/Fli oncoprotein-driven transcription; inhibition, % at 12.6 µM; 350,000 tested, 0.67% active; A673 NR0B1-luciferase reporter, viability-normalised;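 active means mean inhibition of at least 50% after viability correction, with every replicate also passing that limit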;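 further: firefly luciferase signal divided by Alamar Blue viability fluorescence both relative to DMSO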
Yeast UUG start-2: modulators of start codon recognition fidelity in yeast | shares compounds with Yeast UUG start-1 | S. cerevisiae UUG-start firefly luciferase, luminescence, 4 h; 100% means double the DMSO signal | activation, % at 38 µM | 540 tested, under 10 active | AID 652061;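 active means signal increase whose fitted curve reaches an absolute level of 40 at a concentration under 10 µM; inactive means activity opposite to the expected increase, or the rest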
* hit, by the source's call; i = inactive; / = no result given; [ ] = another dose, or the depositor's remark.

item | Structure | miR122 inh | LGR2 antag | F508del corr | Yeast UUG start-1 | PglD DTNB | EWS-Fli inh | Yeast UUG start-2
1 | C#CCOCCOCCOCCNc1nc(N2CCN(C(=O)[C@H](CCC(=O)O)n3cc(C(N)Cc4ccc(O)cc4)nn3)CC2)nc(N2CCN(C(=O)[C@H](CCC(=O)O)n3cc(C(N)[C@H](C)CC)nn3)CC2)n1 (some centres not stated) | -1.6 | / | / | 112.2* | -6.1 | / | 10.1
2 | C#CCOCCOCCOCCNc1nc(N2CCN(C(=O)[C@H](CCCN=C(N)N)n3cc(C(N)[C@H](C)CC)nn3)CC2)nc(N2CCN(C(=O)[C@H](CC(N)=O)n3cc(C(N)[C@@H](C)CC)nn3)CC2)n1 (some centres not stated) | -2.7 | -13.5 | -0.7 | 121.3* | 2.8 | -2.1 | -3.1
3 | C#CCOCCOCCOCCNc1nc(N2CCN(C(=O)[C@H]([C@@H](C)CC)n3cc([C@@H](N)Cc4ccc(O)cc4)nn3)CC2)nc(N2CCN(C(=O)[C@H](Cc3ccc(O)cc3)n3cc([C@@H](N)C(C)CC)nn3)CC2)n1 (some centres not stated) | -12.7 | 7.5 | -0.2 | 8.7 | 3.3 | -0.9 | /
4 | CCN(CC)S(=O)(=O)c1ccc(C(=O)Nc2cc(C)cc(C)c2)cc1 | -5.3 | / | / | 321.8* | 0.2 | / | 2.9
5 | CCN(CC)S(=O)(=O)c1cccc(C(=O)Nc2cc(C)cc(C)c2)c1 | 17.2 | / | / | 0.7 | 1.2 | / | /
6 | c1ccc(Nc2cccc(Nc3ccccc3)n2)cc1 | 4.2 | / | / | -3.1 | 2.5 | / | /
7 | COc1ccc(-c2noc(Cc3cccs3)n2)cc1 | 0.1 | / | / | active | 0.7 | / | -4.4
8 | CCN(C(=O)c1cc(Cl)ccc1OC)c1ccccc1C | -1.9 | / | / | 128.3* | -4.3 | / | 3.9
9 | CCS(=O)(=O)N1[C@H](C#N)[C@@H](c2ccc(C#Cc3ccccc3F)cc2)[C@@H]1CO | / | -13.0 | 1.4 | / | -2.5 | -8.8 | /
10 | Cc1noc(C)c1S(=O)(=O)N(C)C[C@@H]1Oc2c(NC(=O)C3CC3)cccc2C(=O)N([C@H](C)CO)C[C@@H]1C | 53.2[16.7 µM] | 25.8 | -2.5 | -6.8 | 6.1 | -15.2 | /
11 | Cc1cc(Nc2ccc(Cl)cc2)nc(NCc2ccccc2)n1 | 4.6 | -12.7 | / | active | 8.2 | / | -2.2
12 | Cn1nc(CC(=O)Nc2cccc(O)c2)c2ccccc2c1=O | / | / | / | / | / | / | i
13 | Cn1nc(CC(=O)Nc2ccc3c(c2)OCCO3)c2ccccc2c1=O | -8.1 | / | / | / | / | / | -2.1
14 | Cn1c(C(=O)O)c(CC(=O)Nc2ccc3c(c2)OCCO3)c2ccccc21 | -3.0 | / | / | -47.3 | 3.9 | / | /
15 | Cc1ccc(NC(=O)Cc2nn(C)c(=O)c3ccccc23)cc1F | -4.8 | / | / | 0.5 | 2.6 | / | 15.6
16 | Cn1nc(CC(=O)Nc2ccc(Oc3ccccc3)cc2)c2ccccc2c1=O | / | / | / | / | / | / | i
17 | O=C(C[C@@H]1CC[C@@H]2[C@H](COC[C@H](O)CN2C(=O)Nc2ccc(Cl)cc2)O1)NCCc1ccncc1 | -0.9[16.7 µM] | 0.5 | -1.6 | / | -0.8 | -41.9 | /
18 | CC(C)(C)OC(=O)N1CCN(c2ccc(NC(=O)Cn3nnc(-c4ccccc4)n3)cc2)CC1 | -9.8 | / | / | -2.7 | 0.1 | / | /
19 | Cn1nc(CC(=O)Nc2ccc(N3CCN(C(=O)OC(C)(C)C)CC3)cc2)c2ccccc2c1=O | -6.7 | / | / | 736.2* | 3.7 | / | 3.6
20 | COc1cc2c(C#N)c(N3CCc4ccccc4C3)nc(N)c2c(N)n1 | 2.2 | / | / | 502.1* | 1.7 | / | -3.8
21 | COc1cc2c(C#N)c(N3CCCCC3)nc(N)c2c(N)n1 | -3.0 | / | / | -17.4 | 7.4 | / | /
22 | C=CCN1C(=O)C(Cc2cccc(Cl)c2)SC1=Nc1ccc(C(=O)O)cc1 (configuration not stated) | / | -5.1 | 1.2 | / | / | 4.2 | /
23 | Cn1c(=O)c2cc(NCc3ccccc3)nnc2n(C)c1=O | -4.0 | / | / | -21.2 | -1.2 | / | /
24 | Cc1sc2nc(CN3CCOCC3)nc(N3CCC(C(N)=O)CC3)c2c1C | -0.7 | / | / | 285.9* | 0.6 | / | -7.5
25 | Cc1sc2nc(CN3CCOCC3)nc(N3CCOCC3)c2c1C | -6.2 | / | / | -17.6 | 9.2 | / | /

Continued; it opens with the four that closed the last part.
item | Structure | miR122 inh | LGR2 antag | F508del corr | Yeast UUG start-1 | PglD DTNB | EWS-Fli inh | Yeast UUG start-2
22 | C=CCN1C(=O)C(Cc2cccc(Cl)c2)SC1=Nc1ccc(C(=O)O)cc1 (configuration not stated) | / | -5.1 | 1.2 | / | / | 4.2 | /
23 | Cn1c(=O)c2cc(NCc3ccccc3)nnc2n(C)c1=O | -4.0 | / | / | -21.2 | -1.2 | / | /
24 | Cc1sc2nc(CN3CCOCC3)nc(N3CCC(C(N)=O)CC3)c2c1C | -0.7 | / | / | 285.9* | 0.6 | / | -7.5
25 | Cc1sc2nc(CN3CCOCC3)nc(N3CCOCC3)c2c1C | -6.2 | / | / | -17.6 | 9.2 | / | /
26 | CC1(C)C(=O)Nc2ccccc2N1C(=O)COC(=O)C1CCCCC1 | 0.2 | 1.2 | / | -4.6 | 2.5 | / | /
27 | CN(C)S(=O)(=O)c1cccc(NC(=O)c2ccc(N3CCCC3=O)cc2)c1 | -2.5 | -3.8 | 2.9 | -13.7 | -2.5 | -15.8 | /
28 | CC(=O)N1CCN(c2ccc([N+](=O)[O-])cc2)CC1 | / | / | -2.1 | / | / | 10.7 | 0.2
29 | CC(=O)OCC(=O)N1CCN(c2ccc([N+](=O)[O-])cc2)CC1 | / | 3.8 | / | / | / | -3.0 | -4.7
30 | CCOCC(=O)N1CCN(c2ccc([N+](=O)[O-])cc2)CC1 | -5.6 | 9.0 | / | 1.2 | -13.9 | / | -7.2
31 | CCCNC(=O)c1ccc(-c2nn(C)c(=O)c3ccccc23)cc1 | 0.0 | -12.8 | 1.0 | -6.1 | 0.2 | -1.4 | /
32 | Cc1nn(C(C)(C)C)c(NC(=O)c2ccc(Cl)cc2)c1Br | 1.1 | 2.6 | 0.4 | -10.6 | 5.7 | 8.2 | /
33 | Cc1ccc(-c2nn(-c3ccccc3)cc2/C=C2\SC(=S)N(CC(=O)O)C2=O)cc1 | 20.7 | -16.7 | 0.2 | 527.0* | -1.5 | -2.4 | 1.8
34 | COc1ccc(-c2nn(-c3ccccc3)cc2/C=C2/SC(=S)N(CCC(=O)O)C2=O)cc1 | -2.2 | -21.2 | -0.1 | 6.4 | -19.0 | 1.6 | /
35 | COCC(=O)Nc1ccc2c(c1)OC[C@@H](C)N(C(=O)c1cnccn1)C[C@@H](C)[C@@H](OC)CN(C)C2=O | / | -14.0 | 2.4 | 156.2* | -0.3 | -5.7 | i
36 | COCC(=O)Nc1ccc2c(c1)OC[C@H](C)N(C(=O)c1cnccn1)C[C@H](C)[C@H](OC)CN(C)C2=O | / | 18.2 | -0.4 | 17.2 | 2.2 | 3.7 | /
37 | COCC(=O)Nc1ccc2c(c1)OC[C@@H](C)N(C(=O)COC)C[C@@H](C)[C@@H](OC)CN(C)C2=O | / | -1.1 | -2.3 | 196.7* | -0.8 | -4.2 | i
38 | COCC(=O)Nc1ccc2c(c1)C(=O)N(C)C[C@@H](OC)[C@@H](C)CN(Cc1ccccc1F)[C@@H](C)CO2 | / | -7.6 | -1.3 | 180.3* | 1.7 | 4.5 | i
39 | CO[C@@H]1CN(C)C(=O)c2ccc(NC(=O)c3ccccc3F)cc2OC[C@@H](C)N(C(C)=O)C[C@H]1C | / | -10.9 | -1.0 | / | / | / | /
40 | CO[C@@H]1CN(C)C(=O)c2ccc(NC(=O)c3ccccc3F)cc2OC[C@H](C)N(C(C)=O)C[C@@H]1C | / | 6.0 | 3.3 | 123.0* | 2.5 | -9.4 | i
41 | Cc1ccc(S(=O)(=O)N[C@H]2CC[C@@H](CC(=O)NCc3ccccc3F)O[C@H]2CO)cc1 | / | 8.1 | 0.8 | -1.5 | 0.8 | -4.0 | /
42 | CC(C)(C)c1ccc(C(=O)NCC(=O)NCc2ccccn2)cc1 | / | 10.8 | -4.1 | -17.3 | -3.1 | -8.9 | /
43 | CCOc1cc(C(=S)N2CCOCC2)ccc1OC(=O)/C=C/c1ccc(OC)c(OC)c1 | -0.1 | 7.4 | / | 517.5* | 0.7 | / | 3.2
44 | O=C(O)C[C@H]1C[C@H]2c3cc(NC(=O)c4ccc5c(c4)OCO5)ccc3O[C@H]2[C@@H](CO)O1 | -0.2[16.7 µM] | 8.6 | 0.5 | 38.5* | 0.5 | -1.6 | i
